Literature values in article PMC4869338, “Pre-clinical evaluation of CYP 2D6 dependent drug–drug interactions between primaquine and SSRI/SNRI antidepressants” (Malaria Journal, 2016).

Conditions: in vivo; cited from earlier work

| Substance | primaquine exposure on co-administration |
| --- | --- |
| dihydroartemisinin-piperaquine | significantly higher primaquine exposure |
| pyronaridine-artesunate | significantly higher primaquine exposure |
